The record followed here is paper PMC9774897 (Antibiotics, 2022).

In the data set the test system is human red blood cells. Nature of the data set: Red blood cell hemolytic assay. The following applies: even at a low concentration (range 15.6–1000 µg/mL).

With `CC[C@H](C)[C@H](NC(=O)CN)C(=O)NCC(=O)N[C@@H](C)C(=O)N[C@H](C(=O)N[C@@H](CC(C)C)C(=O)N[C@@H](CCCCN)C(=O)N[C@H](C(=O)N[C@@H](CC(C)C)C(=O)N[C@H](C(=O)N[C@H](C(=O)NCC(=O)N[C@@H](CC(C)C)C(=O)N1CCC[C@H]1C(=O)N[C@@H](C)C(=O)N[C@@H](CC(C)C)C(=O)N[C@H](C(=O)N[C@@H](CO)C(=O)N[C@@H](Cc1c[nH]c2ccccc12)C(=O)N[C@H](C(=O)N[C@@H](CCCCN)C(=O)N[C@@H](CCCNC(=N)N)C(=O)N[C@@H](CCCCN)C(=O)N[C@@H](CCCNC(=N)N)C(=O)N[C@@H](CCC(N)=O)C(=O)N[C@@H](CCC(N)=O)C(N)=O)[C@@H](C)CC)[C@@H](C)CC)[C@@H](C)O)[C@@H](C)O)C(C)C)C(C)C` [AM-mel], the hemolysis result is “complete hemolysis”.
